In patent US10085933B2, “Cosmetic use of an essential oil of Laserpitium siler L. for keratin materials” (L'OREAL, priority 2013, dated 2018):
“And” between values parts separate entries of the source, which are not always exact repeats. Identical values can stand only once.

Tested on: dermal capillaries of normal human skin maintained alive
Assay: Vascular modulation (vasodilation/vasoconstriction) in a model of normal human skin maintained alive; histological morphometry of dermal capillaries
Type: cell-based
Conditions: 5 μM CGRP in culture medium, 48 hours organ culture
From the text: The object of this study is to analyse the effect on vascular modulation, namely vasodilation or vasoconstriction, of the essential oil of Laserpitium siler L. evaluated in a model of normal human skin maintained alive.
Calcitonin-gene related peptide (CGRP), which induces vasodilation, and noradrenalin, which induces vasoconstriction, are used as positive controls.
The analyses are histological by morphometric quantification of the calibre of the dermal capillaries and semi-quantitative evaluation of the oedema.
Fragments of normal human skin are obtained from a plastic surgery. They are placed in inserts, which are themselves positioned on culture wells. Culture medium specifically adapted to survival maintenance is added to the bottom of the wells, a passage being made by slow diffusion between the two compartments via a porous membrane (3 μm). […]
The skin fragments are fixed in Bouin liquid and included in paraffin. After staining with haemalum-eosin, two criteria are evaluated on the dermis: the oedema and the calibre of the capillaries.
After staining with haemalum-eosin, the vascular dilation is evaluated by counting the number of dilated blood vessels on the entire histological slice (16 fields at magnification 40). […]
A mean is calculated for each parameter from the results obtained on the six skin samples. […]

Calcitonin-gene related peptide [CGRP]
percentage of dilated vessels (dilated capillaries) (mean of six skin samples, control skin 74.8 ± 20.8): 90.5% and 90.5 ± 9.38% | mean area occupied by the lumen of the blood vessels (capillaries) in the dermis (control skin 153.6 ± 74.4): 242.7 μm^2 and 242.7 ± 42.8 μm^2
